## Antibody variant affinities, Ab-14 heavy chain, assay 1

Source: Engelhart et al. 2022 (doi:10.1038/s41597-022-01779-4), MIT Lincoln Laboratory and A-Alpha Bio; data file from the FLAb repository.

Target peptide (SARS-CoV-2 spike, HR2 region): PDVDLGDISGINAS

Ab-14 is the parent antibody, in scFv form: VH, then three GGGGS repeats, then VL. The light chain is unchanged in all variants.
VH: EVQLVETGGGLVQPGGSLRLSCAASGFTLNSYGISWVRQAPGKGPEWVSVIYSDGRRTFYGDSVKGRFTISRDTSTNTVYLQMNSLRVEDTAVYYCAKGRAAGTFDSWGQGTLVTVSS
VL: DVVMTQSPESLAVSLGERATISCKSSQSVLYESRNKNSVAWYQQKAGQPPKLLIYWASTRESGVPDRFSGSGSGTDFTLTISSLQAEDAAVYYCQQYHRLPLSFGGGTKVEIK

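Library AAYL49 holds single substitutions and randomly drawn double and triple substitutions in the CDRs. Affinity was read by AlphaSeq, a pooled yeast mating assay with surface-displayed partners. Pairs that bind mate more often; barcode pairs of the diploids are counted by sequencing. Read counts were normalised to the haploid input and turned into Kd by a linear fit to BCL2-family pairs of known affinity, for each replicate. Mating was done three times.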

The parent's heavy chain CDRs are GFTLNSYGIS, VIYSDGRRTFYGDSVK, GRAAGTFDS; each variant's own CDRs replace them letter for letter. This list gathers variants with a substitution at A102 (VH, numbered from residue 1). The Kd shown is the geometric mean over detected replicates; a lower Kd is a better binder. Where no diploid with the target was found in any replicate, the entry reads "nd": below detection, most likely a poor binder, though not proof of it. Nonspecific signal, from three strains lacking the peptide, appeared in 15% of pairings of library AAYL49, centred on 11 µM (5% of these signals below 680 nM); values are not corrected for it.

The variant GFTLNSYGIS / VIYNDGRRTFYKDSVK / GRAMGTFDS showed nd (0 of 3 replicates). With GFTLNSYGIS / VIYSDGRRTFYGDSVK / DRFVGTFDS the result was 43 nM (3 of 3 replicates). For GFTDNSYGIS / VIYSDGRRTFYGESVK / GRAPGTFDS, the assay gave 37 µM (1 of 3 replicates). For GFTLNSYGIS / VIYSDGRRTFYIDSVK / VRAQGTFDS, the assay gave 2.1 µM (3 of 3 replicates). The variant GFHLNSYGIS / VIYSDGRRTFYGDSVK / GPAEGTFDS gave 4.1 nM (3 of 3 replicates).

With GFTLNSYGIS / VWYSDGRKTFYGDSVK / GRAKGTFDS the result was nd (0 of 3 replicates). For GFTLNSYGIS / CIYSDGRRTFYGDSVK / GRPPGTFDS, the assay gave 1.6 µM (2 of 3 replicates). The variant GFTLNSYGIS / VIYSDGRRTFYGDSVK / ERARGTFDS showed 2.4 nM (3 of 3 replicates). The variant GFTLNSYGIS / VIYSDGRRTFYGDDVK / GRPFGTFDS showed 890 nM (1 of 3 replicates). The variant GFTLNSYGIS / VIYSDGRRTFYGDSVK / GRARGTFDS showed 670 nM (1 of 3 replicates).

The variant GFTSNSYGIS / VGYSDGRRTFYGDSVK / GRAEGTFDS gave nd (0 of 3 replicates). The variant GFTLNSYGIS / VIYSDCRRTFYGDQVK / GRAVGTFDS gave nd (0 of 3 replicates). The variant GFTLNSYGPS / AIYSDGRRTFYGDSVK / GRAHGTFDS showed 150 µM (1 of 3 replicates). The variant GFALNSYGGS / VIYSDGRRTFYGDSVK / GRATGTFDS showed 7.7 µM (2 of 3 replicates). The variant GFALNSYGIS / DIYSDGRRTFYGDSVK / GRAGGTFDS gave nd (0 of 3 replicates).

The variant GYTLNSYGIS / VIYSDGRRTPYGDSVK / GRATGTFDS showed 46 µM (1 of 3 replicates). For GFTLNSYGIS / VIYSDGPRTQYGDSVK / GRACGTFDS, the assay gave 3.8 µM (3 of 3 replicates). The variant GFTINSYGIS / VIYSDGRRTFIGDSVK / GRAHGTFDS gave nd (0 of 3 replicates). With GFTLNSYGIS / VFYSDGRRTFLGDSVK / GRAHGTFDS the result was nd (0 of 3 replicates). For GFTLNSYGIM / VIYSDGRNTFYGDSVK / GRASGTFDS, the assay gave nd (0 of 3 replicates).

The variant GFTLNSYGIS / YIYSDGRRTCYGDSVK / GRAPGTFDS showed 110 µM (1 of 3 replicates). For GFTLNSYGIQ / VIYSGGRRTFYGDSVK / GRANGTFDS, the assay gave nd (0 of 3 replicates). For GFTLNSYGIS / VIYSDGRRTFYGQSVK / GRACGTFDS, the assay gave nd (0 of 3 replicates). With GFTLNSYGIR / VIYSDGRRTFYGDSAK / GRAVGTFDS the result was nd (0 of 3 replicates). The variant GTTLNSYGIS / VLYSDGRRTFYGDSVK / GRAPGTFDS gave 93 µM (1 of 3 replicates).

With GFTLNSYGIS / VIYSDYRDTFYGDSVK / GRADGTFDS the result was 43 µM (1 of 3 replicates). The variant GFSLNSYYIS / VIYSDGRRTFYGDSVK / GRASGTFDS gave nd (0 of 3 replicates). The variant GFTLNSYGIS / VIYSDGRRTFYHDSVK / GTANGTFDS showed nd (0 of 3 replicates). The variant GFTLNSYGVS / VIYSDGRRTFYGDSVE / GRAEGTFDS gave nd (0 of 3 replicates). The variant GFTLNSYGIS / VIYSDGRATFYGDSVK / YRAWGTFDS showed nd (0 of 3 replicates).

The variant GFTLNSYGIS / VIYSDGRRNFYGDSVK / GEAEGTFDS showed 31 µM (1 of 3 replicates). The variant GFTLNSYGES / VIYADGRRTFYGDSVK / GRAPGTFDS showed 12 µM (3 of 3 replicates). With GFTLNSYGIS / VPYSDGRRTFYGDSVK / GRAKGTFRS the result was nd (0 of 3 replicates). For TFTLNSYGIS / VIYSDGRRTFYGDSVK / GRAWGTYDS, the assay gave 7.4 µM (2 of 3 replicates). The variant GFTNNSYGIS / VIYSDGRRTFYGDSVH / GRATGTFDS showed nd (0 of 3 replicates).

With GFTLNSQGIS / VIYSDGRRTFYGDSVK / GRAYGTGDS the result was 210 µM (1 of 3 replicates). For GFTLNSYGIS / VIYSVGRRTFYGDSVK / GYAFGTFDS, the assay gave nd (0 of 3 replicates). For GFGLNSYGIS / VIYSDGRRTFYGDSVS / GRADGTFDS, the assay gave 160 nM (3 of 3 replicates).

From the list, the first 5 with no signal in any replicate:

CDR-H1,CDR-H2,CDR-H3,apparent Kd,seen in
GFTLNSYGIS,VIYNDGRRTFYKDSVK,GRAMGTFDS,nd,0/3
GFTLNSYGIS,VWYSDGRKTFYGDSVK,GRAKGTFDS,nd,0/3
GFTSNSYGIS,VGYSDGRRTFYGDSVK,GRAEGTFDS,nd,0/3
GFTLNSYGIS,VIYSDCRRTFYGDQVK,GRAVGTFDS,nd,0/3
GFALNSYGIS,DIYSDGRRTFYGDSVK,GRAGGTFDS,nd,0/3

For reference, the parent read 4.4 nM as the reference entry and 13 µM (one replicate of three) as a member of this library.